Consider one compound from article PMC6056553, “Allosteric sodium binding cavity in GPR3: a novel player in modulation of Aβ production” (Scientific Reports, 2018).

Protein sequences, listed by entry. Tags and fused reporters are not part of them.
UniProt P46089, whole entry C267A: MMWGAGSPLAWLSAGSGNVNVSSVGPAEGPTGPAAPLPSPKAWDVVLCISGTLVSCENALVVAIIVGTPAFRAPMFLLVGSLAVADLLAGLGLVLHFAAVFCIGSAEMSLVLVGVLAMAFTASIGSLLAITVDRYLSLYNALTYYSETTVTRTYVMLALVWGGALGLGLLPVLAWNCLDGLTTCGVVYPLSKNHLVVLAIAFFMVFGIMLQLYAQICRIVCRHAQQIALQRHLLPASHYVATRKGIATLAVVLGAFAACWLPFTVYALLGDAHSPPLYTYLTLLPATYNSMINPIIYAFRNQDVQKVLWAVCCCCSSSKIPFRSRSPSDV
UniProt P46089, whole entry F120A: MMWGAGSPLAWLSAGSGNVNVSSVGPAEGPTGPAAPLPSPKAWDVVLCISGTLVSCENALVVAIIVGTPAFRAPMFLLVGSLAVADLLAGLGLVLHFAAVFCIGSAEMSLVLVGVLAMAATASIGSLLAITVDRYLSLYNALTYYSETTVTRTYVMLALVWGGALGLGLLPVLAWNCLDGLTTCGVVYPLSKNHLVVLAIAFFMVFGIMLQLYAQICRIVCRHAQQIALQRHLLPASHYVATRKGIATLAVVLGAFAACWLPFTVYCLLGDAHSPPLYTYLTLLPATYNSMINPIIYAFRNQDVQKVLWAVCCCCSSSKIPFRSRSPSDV

Common to all, as to assay type: cell-based
Assay [1] concerns the target G-protein coupled receptor 3 (GPR3) (Homo sapiens, UniProt P46089). Description: cAMP accumulation (AlphaScreen) in HEK293 cells transfected with GPR3, agonist dose-response, with mutagenesis.
For assay [2], the target named is G-protein coupled receptor 3 (GPR3) (Homo sapiens, UniProt P46089, C267A). The assay is described as follows: cAMP accumulation (AlphaScreen) in HEK293 cells transfected with mutant GPR3, agonist dose-response.
Assay [3] has as its target G-protein coupled receptor 3 (GPR3) (Homo sapiens, UniProt P46089, F120A). The description is as above.

`c1ccc2c(c1)[I+]c1ccccc1-2` [DPI, diphenyleneiodonium chloride]: the EC50 in assay [1] is ~2 µM; in assay [2], 5 µM; in assay [3] it was 15 µM.
